Chains of the proteins cited; added tags and fusions are not shown. Lines headed by an entry give the natural chain unless they say otherwise; changes in a name come on top.
UniProt O60502: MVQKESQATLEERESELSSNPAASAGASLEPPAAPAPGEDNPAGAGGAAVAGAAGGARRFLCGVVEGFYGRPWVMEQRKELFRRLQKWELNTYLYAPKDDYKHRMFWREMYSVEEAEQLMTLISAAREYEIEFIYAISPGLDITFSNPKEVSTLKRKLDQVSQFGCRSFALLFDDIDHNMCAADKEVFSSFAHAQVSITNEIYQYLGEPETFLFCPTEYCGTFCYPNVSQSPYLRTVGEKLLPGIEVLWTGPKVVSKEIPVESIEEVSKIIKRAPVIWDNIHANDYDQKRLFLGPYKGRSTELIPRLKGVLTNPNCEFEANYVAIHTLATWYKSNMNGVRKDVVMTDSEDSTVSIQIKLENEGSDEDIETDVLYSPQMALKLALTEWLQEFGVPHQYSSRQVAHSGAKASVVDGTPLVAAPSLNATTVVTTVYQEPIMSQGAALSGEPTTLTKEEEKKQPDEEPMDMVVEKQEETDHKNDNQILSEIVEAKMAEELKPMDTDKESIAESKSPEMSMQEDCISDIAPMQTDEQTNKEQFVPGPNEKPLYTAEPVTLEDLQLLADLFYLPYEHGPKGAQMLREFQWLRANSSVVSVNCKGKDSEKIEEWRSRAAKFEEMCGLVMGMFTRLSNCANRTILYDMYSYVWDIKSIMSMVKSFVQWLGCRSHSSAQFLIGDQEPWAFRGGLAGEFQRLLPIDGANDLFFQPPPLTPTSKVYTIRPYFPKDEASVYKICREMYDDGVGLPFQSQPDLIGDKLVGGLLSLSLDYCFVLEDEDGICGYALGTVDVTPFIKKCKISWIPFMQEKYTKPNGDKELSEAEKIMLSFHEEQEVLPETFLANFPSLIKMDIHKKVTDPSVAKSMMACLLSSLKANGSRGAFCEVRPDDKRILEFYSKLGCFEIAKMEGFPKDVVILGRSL
UniProt Q8VIJ5: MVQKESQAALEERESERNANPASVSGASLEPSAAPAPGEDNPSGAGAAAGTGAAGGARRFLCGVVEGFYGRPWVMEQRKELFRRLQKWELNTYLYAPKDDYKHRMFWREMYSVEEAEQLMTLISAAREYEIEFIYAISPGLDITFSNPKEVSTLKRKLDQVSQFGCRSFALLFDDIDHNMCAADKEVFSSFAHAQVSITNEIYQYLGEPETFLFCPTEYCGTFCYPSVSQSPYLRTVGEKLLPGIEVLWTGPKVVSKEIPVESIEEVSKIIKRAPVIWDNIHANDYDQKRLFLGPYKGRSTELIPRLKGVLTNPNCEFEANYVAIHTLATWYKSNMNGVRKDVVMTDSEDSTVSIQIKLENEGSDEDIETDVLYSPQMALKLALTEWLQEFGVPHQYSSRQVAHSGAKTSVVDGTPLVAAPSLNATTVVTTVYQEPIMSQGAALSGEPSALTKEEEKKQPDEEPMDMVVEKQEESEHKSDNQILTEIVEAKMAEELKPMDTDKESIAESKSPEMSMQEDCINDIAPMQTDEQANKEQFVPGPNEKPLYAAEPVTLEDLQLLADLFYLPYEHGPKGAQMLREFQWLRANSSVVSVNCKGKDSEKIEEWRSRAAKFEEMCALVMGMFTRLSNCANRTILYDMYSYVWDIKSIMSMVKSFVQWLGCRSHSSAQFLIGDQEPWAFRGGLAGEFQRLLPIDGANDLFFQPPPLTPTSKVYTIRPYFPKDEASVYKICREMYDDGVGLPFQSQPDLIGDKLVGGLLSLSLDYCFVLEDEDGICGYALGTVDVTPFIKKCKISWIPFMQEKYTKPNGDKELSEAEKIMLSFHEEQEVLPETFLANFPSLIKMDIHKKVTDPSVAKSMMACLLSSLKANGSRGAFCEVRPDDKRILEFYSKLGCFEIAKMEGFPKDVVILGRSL

In patent US9409924B2, “Selective glycosidase inhibitors and uses thereof” (Alectos Therapeutics Inc., priority 2011, dated 2016):

Experiments:
[1] = molecular target: human O-GlcNAcase (Homo sapiens (Human), UniProt O60502); experiment: Assay for determination of KI values for inhibition of O-GlcNAcase activity (fluorescence-based hOGA); type: biochemical; settings: purified human O-GlcNAcase, 4-Methylumbelliferyl N-acetyl-β-D-glucosaminide substrate, pH 7.0, Cheng-Prusoff
Method: Assay for Determination of KI Values for Inhibition of O-GlcNAcase Activity
Experimental Procedure for Kinetic Analyses:
Enzymatic reactions were carried out in a reaction containing 50 mM NaH2PO4, 100 mM NaCl and 0.1% BSA (pH 7.0) using 2 mM 4-Methylumbelliferyl N-acetyl-β-D-glucosaminide dihydrate (Sigma M2133) dissolved in ddH2O, as a substrate. The amount of purified human O-GlcNAcase enzyme used in the reaction was 0.7 nM. Test compound of varying concentrations was added to the enzyme prior to initiation of the reaction. The reaction was performed at room temperature in a 96-well plate and was initiated with the addition of substrate. […] The slope of product production was determined for each concentration of compound tested and plotted, using standard curve fitting algorithms for sigmoidal dose response curves. The values for a four parameter logistic curve fit of the data were determined.

[2] = molecular target: O-GlcNAcase (Rattus norvegicus (Rat), UniProt Q8VIJ5); experiment: Cell-based ELISA of O-GlcNAcylated protein (RL-2 antibody) for cellular activity of O-GlcNAcase inhibitors; settings: rat PC-12 cells, 24 h treatment, O-GlcNAcylated protein detected with RL-2 antibody
Source text: Assay for Determination of Cellular Activity for Compounds that Inhibit O-GlcNAcase Activity
Inhibition of O-GlcNAcase, which removes O-GlcNAc from cellular proteins, results in an increase in the level of O-GlcNAcylated protein in cells. An increase in O-GlcNAcylated protein can be measured by an antibody, such as RL-2, that binds to O-GlcNAcylated protein. The amount of O-GlcNAcylated protein:RL2 antibody interaction can be measured by enzyme linked immunosorbant assay (ELISA) procedures.
A variety of tissue culture cell lines, expressing endogenous levels of O-GlcNAcase, can be utilized; examples include rat PC-12, and human U-87, or SK—N—SH cells. […] Compounds to be tested were dissolved in DMSO, either 2 or 10 mM stock solution, and then diluted with DMSO and water in a two-step process using a Tecan workstation. […] If desired, the total protein concentration of samples was determined using 20 μL of the sample using the BCA method. […]
The amount of O-GlcNAcylated protein, as detected by the ELISA assay, was plotted for each concentration of test compound using standard curve fitting algorithms for sigmoidal dose response curves. The values for a four parameter logistic curve fit of the data were determined, with the inflection point of the curve being the potency value for the test compound.

| Ki [1] | EC50 [2] | Structure (SMILES) |
| --- | --- | --- |
| 1.1 nM | 13 nM | CNC1=N[C@@H]2[C@@H](F)[C@H](O)[C@@H]([C@H](C)O)O[C@@H]2S1 [Example 1, (3aR,5R,6R,7R,7aR)-7-fluoro-5-((S)-1-hydroxyethyl)-2-(methylamino)-5,6,7,7a-tetrahydro-3aH-pyrano[3,2-d]thiazol-6-ol] |
| 0.3 nM | 5.2 nM | CNC1=N[C@@H]2[C@H](F)[C@H](O)[C@@H]([C@H](C)O)O[C@@H]2S1 [Example 34, (3aR,5R,6R,7S,7aR)-7-fluoro-5-((S)-1-hydroxyethyl)-2-(methylamino)-5,6,7,7a-tetrahydro-3aH-pyrano[3,2-d]thiazol-6-ol] |
| 562 nM | – | CNC1=N[C@@H]2[C@@H](F)[C@@H](O)[C@@H]([C@H](C)O)O[C@@H]2S1 [Example 46, (3aR,5R,6S,7R,7aR)-7-fluoro-5-((S)-1-hydroxyethyl)-2-(methylamino)-5,6,7,7a-tetrahydro-3aH-pyrano[3,2-d]thiazol-6-ol] |
